Ab-14 heavy chain CDR variants: yeast mating affinities

Target peptide (SARS-CoV-2 spike, HR2 region): PDVDLGDISGINAS

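Phage display of a naive human antibody library on the peptide gave the parent. The library (AAYL49) carries one to three amino acid substitutions per variant, with no insertions or deletions. In AlphaSeq, yeast of one mating type display the scFv and yeast of the other type display the target. Pairs that bind mate more often; barcode pairs of the diploids are counted by sequencing. Scores were corrected for input abundance and mapped to Kd with protein pairs of known affinity run in the same pool. There are three technical replicates.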

Parent: Ab-14, a human scFv built as VH, a (GGGGS)3 linker, VL. Only the CDRs of the heavy chain vary.
VH: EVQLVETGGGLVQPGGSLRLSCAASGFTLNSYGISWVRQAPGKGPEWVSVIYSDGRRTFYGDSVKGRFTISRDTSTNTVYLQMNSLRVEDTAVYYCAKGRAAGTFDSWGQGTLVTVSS
VL: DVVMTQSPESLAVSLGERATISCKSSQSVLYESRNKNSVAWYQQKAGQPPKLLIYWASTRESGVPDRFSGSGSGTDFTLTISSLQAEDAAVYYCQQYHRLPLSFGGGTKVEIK

Substitutions are numbered in sequence along the VH above, starting at 1 (not Kabat). Every variant below is changed at S107 of the VH (sequential numbering). Scale: log10 of Kd in nM, estimated from mating counts; low values are strong binders. Averages over replicates are reported, and they cover detected replicates only. Where no diploid with the target was found in any replicate, the entry reads "no signal": below detection, most likely a poor binder, though not proof of it. As a blank, each scFv also met three strains without target: over library AAYL49, 15% of these pairings were detected, typically at 4.06 and seldom below 2.83. Parent in this assay: reference entry 0.65, copy in this library 4.11 (one replicate of three).

* S53E/V64D/S107A = 4.37 (2 of 3 replicates)
* S35D/T104S/S107P = no signal (0 of 3 replicates)
* K65D/F105Q/S107T = 4.25 (1 of 3 replicates)
* G55L/G103A/S107E = 5.33 (1 of 3 replicates)
* I34R/V50T/S107G = 3.32 (1 of 3 replicates)
* T58D/F105Y/S107N = no signal (0 of 3 replicates)
* S35V/D106H/S107T = 1.74 (3 of 3 replicates)
* F105M/S107A = 1.91 (2 of 3 replicates)
* Y32A/I34E/S107K = 3.91 (2 of 3 replicates)
* I34G/A102L/S107H = no signal (0 of 3 replicates)
* R57C/G103D/S107F = 4.58 (1 of 3 replicates)
* I34N/S35P/S107Y = no signal (0 of 3 replicates)
* F59W/G103F/S107T = no signal (0 of 3 replicates)
* G55H/T58L/S107D = 4.37 (1 of 3 replicates)
* Y32K/V64D/S107W = no signal (0 of 3 replicates)
* G33S/S107P = 4.02 (2 of 3 replicates)
* G33R/K65R/S107C = 3.88 (2 of 3 replicates)
* I51L/T104K/S107H = no signal (0 of 3 replicates)
* Y52T/A102W/S107G = 4.37 (2 of 3 replicates)
* F27K/G33I/S107D = no signal (0 of 3 replicates)
* I51Q/F105C/S107D = 4.24 (1 of 3 replicates)
* S35W/S107W = 5.84 (1 of 3 replicates)
* G61V/G99N/S107E = no signal (0 of 3 replicates)
* T58F/S107P = 2.33 (3 of 3 replicates)
* T28H/S107L = no signal (0 of 3 replicates)
* A102P/D106T/S107H = 0.62 (3 of 3 replicates)
* Y60P/A102Y/S107C = 4.36 (2 of 3 replicates)
* S35D/V64N/S107E = 3.94 (1 of 3 replicates)
* S35V/S107H = no signal (0 of 3 replicates)
* L29A/S53H/S107W = 3.74 (2 of 3 replicates)
* S107N = 1.71 (3 of 3 replicates)
* S107P = no signal (0 of 3 replicates)
* I34L/S35N/S107V = 3.58 (1 of 3 replicates)
* G55H/T104H/S107A = no signal (0 of 3 replicates)
* I34G/V64G/S107K = 3.52 (3 of 3 replicates)
* S35C/D54C/S107L = 5.06 (2 of 3 replicates)
* G26S/S107D = 1.07 (3 of 3 replicates)
* G61I/G103W/S107I = no signal (0 of 3 replicates)
* F27P/G103T/S107P = 2.44 (1 of 3 replicates)
* Y32V/F105D/S107H = 2.15 (3 of 3 replicates)
* G55A/A102Y/S107V = no signal (0 of 3 replicates)
* L29V/S53M/S107Q = no signal (0 of 3 replicates)
* S31F/G61K/S107L = 1.53 (1 of 3 replicates)
* A102C/T104V/S107C = 0.87 (3 of 3 replicates)
* I51F/A102T/S107V = 4.04 (1 of 3 replicates)
* T58Y/S107W = 4.40 (2 of 3 replicates)
* S107W = 2.08 (3 of 3 replicates)
* G55V/F59G/S107H = no signal (0 of 3 replicates)
* G61N/S63N/S107V = 0.23 (3 of 3 replicates)

Repeated from above, the 7 best binders with a signal in all replicates:

- G61N/S63N/S107V -> 0.23 (3 of 3 replicates)
- A102P/D106T/S107H -> 0.62 (3 of 3 replicates)
- A102C/T104V/S107C -> 0.87 (3 of 3 replicates)
- G26S/S107D -> 1.07 (3 of 3 replicates)
- S107N -> 1.71 (3 of 3 replicates)
- S35V/D106H/S107T -> 1.74 (3 of 3 replicates)
- S107W -> 2.08 (3 of 3 replicates)

Reference: Engelhart et al. 2022, doi:10.1038/s41597-022-01779-4. File: FLAb, binding data.